Data reported in PubChem BioAssay AID465 (The Scripps Research Institute Molecular Screening Center, 2006).
This is a selection; strong and weak results do not stand in their true shares. Activity calls are given as the source filed them.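 Rule for the calls: active = inhibition above the mean of all tested compounds plus 3 SD (cut at about 40% in these data); inactive = the rest.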

Assay: lowered NF-kB luciferase signal in HEK293 cells – cell-based, HEK-293 luciferase reporter, PMA/ionomycin, luminescence, antigen receptor NF-kB inhibitor project, primary screen (AID 465);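 note: 0% = stimulated DMSO wells and 100% = 10 µM reference inhibitor 5653914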
Conditions: HEK-293 NF-kB luciferase reporter, at 3 µM, active compounds read high
In short: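 System: NF-kB luciferase reporter HEK-293 cells | Replication: Single test | Control set: DMSO vs reference inhibitor | Evaluation: % inhibition | Schedule: 1 h pretreatment, 16 h stimulation, 37 °C | Probe or stimulus: PMA with ionomycin | Compound dosing: One dose, 3 µM | Detection: Luciferase luminescence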

| Compound | inhibition |
| --- | --- |
| COc1ccc(NC2CCN(CCc3ccccc3)CC2)c(OC)c1 | inactive: 6.9% |
| O=C(OC1CN2CCC1CC2)C1c2ccccc2Oc2ccccc21 (configuration not stated) | inactive: 21.3% |
| N#CC1(Nc2ccccc2)CCN(CCc2ccccc2)CC1 | inactive: 8.6% |
| N/C(=N\O)c1c(N)no[n+]1[O-] | inactive: 2.9% |
| CCOc1ncccc1C(=O)NCC1(N2CCOCC2)CCCCC1 | inactive: 8.7% |
| CCC(CO)(C(=O)OC1CN2CCC1CC2)c1ccccc1 (configuration not stated) | inactive: 3.6% |
| Fc1ccccc1NC1CCN(Cc2ccccc2)CC1 | inactive: -3.1% |
